Data as given in patent US6399316B1, “PACAP receptor protein, method for preparing said protein, and use thereof” (Takeda Chemical Industries, Ltd., priority 1994, dated 2002).

What was measured:
[1] = biological target: T1, rat PACAP receptor protein Type I-A (pRPR3-A) (Rattus norvegicus, UniProt P32215); experiment: Competitive binding with [125I]-PACAP27, membrane fraction of pRPR3-A-introduced CHO cells; settings: 100 pM [125I]-PACAP27, 25° C., 1 hour, FIG. 40 (A)
T1 construct: pRPACAPR46 and pRPACAPR5 were recombined at the BamHI site to prepare pRPACAPR46-5 having a complete translation frame; expressed in transfected cells; host or cells: CHO cells, pRPR3-A (pRc/CMV); clone A12 for cAMP
T1 sequence (P32215 20-467 isoform P32215-5 limits assumed): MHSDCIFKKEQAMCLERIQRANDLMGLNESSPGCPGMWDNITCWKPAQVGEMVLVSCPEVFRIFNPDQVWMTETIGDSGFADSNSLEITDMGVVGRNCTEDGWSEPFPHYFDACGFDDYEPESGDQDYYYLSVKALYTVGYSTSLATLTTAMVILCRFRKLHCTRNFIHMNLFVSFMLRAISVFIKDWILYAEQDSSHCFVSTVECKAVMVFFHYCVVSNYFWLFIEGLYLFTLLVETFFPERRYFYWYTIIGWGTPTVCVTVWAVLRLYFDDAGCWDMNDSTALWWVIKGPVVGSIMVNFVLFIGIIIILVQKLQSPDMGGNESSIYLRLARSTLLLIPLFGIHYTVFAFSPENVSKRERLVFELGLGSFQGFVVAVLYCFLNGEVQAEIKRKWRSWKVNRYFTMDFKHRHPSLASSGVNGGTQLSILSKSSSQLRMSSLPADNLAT
Procedure: (§1) The pRPR3-A-introduced and pRPR4-B-introduced CHO cells obtained in (2) described above were each disrupted in sodium carbonate buffer containing 1 mM EDTA, 0.5 mM PMSF, 20 μg/ml leupeptin, 4 μg/ml E-64 and 1 μg/ml pepstatin with a Polytron homogenizer (Kinematica) to prepare membrane fractions. Using the membrane fractions, complex binding experiments were conducted. For each of the membrane fractions of the pRPR3-A-introduced CHO cells and the pRPR4-B-introduced CHO cells, each of 10 μg and 15 μg (converted to a protein amount) thereof was ligated with. 100 pM of [^125I]-PACAP27 in a buffer containing 20 mM Tris (pH 7.4), 1 mM EDTA, 0.05% CHAPS, 0.1% BSA and various protease inhibitors. For the competitive experiments, PACAP27 and VIP having each concentration were added. The reaction was conducted at 25° C. for 1 hour, and bound ligands were separated from free ligands by filtration through a filter. As to non-specific binding, a value in the case that 1 μM unlabeled PACAP27 was added and used as a standard. The amount of bound ligands was measured with a γ-counter.

[2] = biological target: T2, rat PACAP receptor protein Type I-B (pRPR4-B) (Rattus norvegicus, UniProt P32215); experiment: Competitive binding with [125I]-PACAP27, membrane fraction of pRPR4-B-introduced CHO cells; settings: 100 pM [125I]-PACAP27, 25° C., 1 hour, FIG. 40 (B)
T2 construct: two kinds of complete primary structures of rat PACAP receptor protein were deduced; expressed in transfected cells; host or cells: CHO cells, pRPR4-B (pRc/CMV); clone B17 for cAMP
T2 sequence (P32215 20-495 isoform P32215-2 limits assumed): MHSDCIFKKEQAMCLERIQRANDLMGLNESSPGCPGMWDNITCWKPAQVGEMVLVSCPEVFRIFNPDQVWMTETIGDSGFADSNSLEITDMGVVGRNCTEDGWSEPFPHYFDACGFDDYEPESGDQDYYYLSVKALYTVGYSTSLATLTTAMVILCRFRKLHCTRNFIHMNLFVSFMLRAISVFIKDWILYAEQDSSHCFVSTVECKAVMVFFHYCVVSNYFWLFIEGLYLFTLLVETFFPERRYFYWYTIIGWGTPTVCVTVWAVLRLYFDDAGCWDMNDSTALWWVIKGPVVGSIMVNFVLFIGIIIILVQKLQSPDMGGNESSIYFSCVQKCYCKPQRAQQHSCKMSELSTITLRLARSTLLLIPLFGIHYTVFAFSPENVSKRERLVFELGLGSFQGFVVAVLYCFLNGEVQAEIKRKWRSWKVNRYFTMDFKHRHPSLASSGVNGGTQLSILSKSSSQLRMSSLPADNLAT
Procedure: as §1

[3] = biological target: T1, rat PACAP receptor protein Type I-A (pRPR3-A); experiment: Intracellular cyclic AMP of rat PACAP receptor cDNA-introduced CHO cells, strain A12; format: cell-based; settings: CHO strain A12, 37° C., 40 minutes, 0.5 mM IBMX, FIG. 43
Procedure: (§2) From the binding experiment with [^125I]-PACAP27 of (3) described above, using CHO strains A12 and B17 highly producing rat PACAP receptor protein, the production promotion of intracellular cyclic AMP with PACAPs was detected in the following manner. Each 48-well plate for tissue culture was inoculated with each of the cell strains. at a density of 1.0×10^5 cells/well, followed by cultivation for 3 days. The plate was washed twice with Ham's F12 medium supplemented with 0.1% BSA and 0.5 mM IBMX, and 500 μl/well of the same medium was added thereto. PACAP27, PACAP38 or VIP having each concentration was added thereto in a 1/100 amount, followed by standing at 37° C. for 40 minutes. The supernatant was removed, and extraction was conducted with 100% cold ethanol. The extract was evaporated to dryness with a centrifugal freeze dryer, and redissolved in the buffer attached to an EIA kit for assaying cyclic AMP (Amersham). Then, the amount of cyclic AMP was assayed according to the formulation of the kit.

[4] = biological target: T2, rat PACAP receptor protein Type I-B (pRPR4-B); experiment: Intracellular cyclic AMP of rat PACAP receptor cDNA-introduced CHO cells, strain B17; format: cell-based; settings: CHO strain B17, 37° C., 40 minutes, 0.5 mM IBMX, FIG. 43
Procedure: as §2

## PACAP27
[1]
  competition with [125I]-PACAP27: concentration-dependent competition took place
[2]
  competition with [125I]-PACAP27: concentration-dependent competition took place
[3]
  production of intracellular cyclic AMP: promoted the production of intracellular cyclic AMP, depending on the concentrations
[4]
  production of intracellular cyclic AMP: promoted the production of intracellular cyclic AMP, depending on the concentrations
